{"source": "patent US6900221B1", "about": "“Stable polymorph on N-(3-ethynylphenyl)-6, 7-bis (2methoxyethoxy)-4-quinazolinamine hydrochloride, methods of production, and pharmaceutical uses thereof” (OSI Pharmaceuticals, Inc., priority 1999, dated 2005)", "tested_on": "cancer patients with multiple tumor types", "assay": "Phase I clinical studies, preliminary evidence of effectiveness in cancer patients", "settings": "human, in vivo", "description": "Evidence of anti-tumor activity can also be seen in the patients with ovarian cancer in the on-going Phase II study."}
{"smiles": "C#Cc1cccc(Nc2ncnc3cc(OCCOC)c(OCCOC)cc23)c1.Cl", "note": "[polymorph B, N-(3-ethynylphenyl)-6,7-bis(2-methoxyethoxy)-4-quinazolinamine hydrochloride]", "values": [{"measurement": "anti-tumor activity in other EGFR positive tumor types", "result": "Documented evidence of anti-tumor activity"}]}
